AlphaSeq binding of Ab-14 heavy chain variants to a spike HR2 peptide

Reference: Engelhart et al. 2022, doi:10.1038/s41597-022-01779-4. File: FLAb, binding data.

The target is the same throughout: PDVDLGDISGINAS, from the HR2 region of SARS-CoV-2 spike.

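The starting antibody came from a phage panning campaign against this peptide. AAYL49 was designed without a model: most single CDR substitutions and a random sample of double and triple ones. In AlphaSeq, yeast of one mating type display the scFv and yeast of the other type display the target. After mating in shaken culture at 30 °C for 16 h, diploids were selected and their barcode pairs sequenced. Read counts were normalised to the haploid input and turned into Kd by a linear fit to BCL2-family pairs of known affinity, for each replicate. There are three technical replicates.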

Parent: Ab-14, a human scFv built as VH, a 15-residue (Gly4Ser)3 linker, VL. Only the CDRs of the heavy chain vary.
VH: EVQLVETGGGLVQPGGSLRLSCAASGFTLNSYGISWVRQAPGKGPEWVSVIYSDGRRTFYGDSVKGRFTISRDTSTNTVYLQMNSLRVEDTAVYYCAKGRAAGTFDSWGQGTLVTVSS
VL: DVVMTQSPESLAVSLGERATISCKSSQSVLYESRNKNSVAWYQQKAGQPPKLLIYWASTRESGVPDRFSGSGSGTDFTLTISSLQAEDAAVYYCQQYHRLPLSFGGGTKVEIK

Each variant is given by its three heavy chain CDRs, as the data file delimits them; those of the parent are GFTLNSYGIS, VIYSDGRRTFYGDSVK, GRAAGTFDS. The read-out is the apparent dissociation constant on a log10 scale (nM): the lower, the stronger. "ND" means that the variant was in the library but no mating with the target was seen in that replicate; the authors take this as a sign of poor binding, and no number exists.

CDR-H1	CDR-H2	CDR-H3	log10 Kd, replicates	empty controls
GFTLNSYGLN	VIYSDGRRTFYGDSVK	GRAAGTFDV	ND 3.58 ND	2 of 9 (3.56)
GFTLNSYGIS	VIYSDGRRIFGMDSVK	GRAAGTFDS	ND ND ND	0 of 9
GQLLNSYGIS	VIYSDGRRTFYGDWVK	GRAAGTFDS	4.95 3.85 3.93	5 of 9 (4.56)
GFTLNSYGIS	VIYSDGRRTFSGDSVK	GRAAGTILS	3.77 4.99 5.22	1 of 9 (3.97)
GFTLNSYGIQ	VIYSDGRRTFYGDSVK	GMAAMTFDS	ND ND 4.78	0 of 9
GFMLNSYGIS	SIYSDGIRTFYGDSVK	GRAAGTFDS	4.95 ND 5.98	3 of 9 (5.14)
GFTLNSLGIS	VIYSDGRRTFYGDSVK	GRAAGTFDS	1.85 1.78 2.05	1 of 9 (3.05)
GFWLNSYGIS	IIYSDGRRTFYGWSVK	GRAAGTFDS	ND 4.93 ND	2 of 9 (3.42)
GFFLNSYGIS	VIYSDGRRTFYMDSVK	GFAAGTFDS	4.73 3.86 ND	5 of 9 (4.03)
GFTLNSYTIS	VAYSDGRRTFYGDSVK	GRAAGTFDE	ND ND ND	1 of 9 (3.54)
GFTLNSYGIS	VIYVSGRRTFYGDSVK	GRAAGTADS	5.58 ND ND	1 of 9 (3.71)
GFTLNSYGIS	VIYVDGRRTFHGCSVK	GRAAGTFDS	ND ND ND	0 of 9
GFFLNSYGIS	VIYSCMRRTFYGDSVK	GRAAGTFDS	ND ND ND	4 of 9 (4.12)
GFTLNSYGIS	VIYSDGRTTFYGDSRK	GRAAGTFGS	ND ND ND	0 of 9
GFTLNSYGIS	VIYRDGRRVSYGDSVK	GRAAGTFDS	ND ND ND	0 of 9
GFTLNSYGIS	VIYSDGRRTFYGDSVK	GRAAGRHDS	5.65 4.57 ND	0 of 9
GFTLNSYGIS	VIYSHGRRTCYGDSVK	GRAAGTEDS	ND ND ND	1 of 9 (3.36)
GFWLNMYGIS	VIYSDGRRTFYGDSVY	GRAAGTFDS	ND ND ND	0 of 9
KFTLNSYGVS	VIYSDGRRTFYGYSVK	GRAAGTFDS	5.25 ND ND	4 of 9 (5.00)
GFTLNSYGIS	VIYSDNPRTFYGDSVN	GRAAGTFDS	ND ND ND	0 of 9
GFTLNSYGIS	VIYSDGRRTFYGDMVC	GRAAGTADS	5.75 5.00 ND	3 of 9 (3.48)
GFWLNSYGIS	VIYSDGRRTFYGFSVK	GRAAGTFYS	ND ND ND	1 of 9 (4.12)
GFTLNSYCIS	VQYSDGRRTFYGDSVK	GRAAGTFDS	ND ND ND	0 of 9
GFTLNSYGIS	VIYSDGRRTFRGDSCK	GRAAQTFDS	ND 5.40 4.16	3 of 9 (4.15)
PFTLNSYGIS	VIYSDGRRTFYGDSVK	GRVLGTFDS	3.42 2.83 3.63	7 of 9 (4.53)
GFTLNSYGIS	VIYSDGRGVFYGDKVK	GRAAGTFDS	ND ND ND	1 of 9 (2.78)
GGTLNSYGIS	LIYSDGRRTFYGDSVK	GRAAGTFDS	2.90 ND 3.13	3 of 9 (4.24)
GFTLNSYAIS	VIHSDGGRTFYGDSVK	GRAAGTFDS	ND 4.47 ND	0 of 9
GFTLNSYGIS	VIYSDGRRTFYGDSVP	GRAAGPFDS	ND ND 2.92	0 of 9
GFTLNSYGIS	VIYSDGRCTFYGDSVK	VRAAGSFDS	ND ND ND	2 of 9 (3.13)
GFTLNSYGNS	VIYSDGRRTAYGDSVK	ARAAGTFDS	ND ND ND	0 of 9
GFTLNSYGIS	VIYSDGRRTFMGDFVK	GAAAGTFDS	ND ND ND	1 of 9 (4.12)
GFTLNSYQIS	VIYSDPRRTFYGDSVK	GRAAGTEDS	4.50 ND 4.81	1 of 9 (4.39)
GFTLNSYGIS	VPYSDSRRTFYGDSVK	GRAAGDFDS	3.82 4.33 4.17	2 of 9 (3.39)
GFTLNSYGIM	VIYSDGRKTFYGWSVK	GRAAGTFDS	4.35 5.03 4.75	6 of 9 (4.58)
GFTLNSYGIS	VQYVDGRRTFYGDSVK	GRAAGIFDS	ND ND ND	3 of 9 (4.38)
GFTPRSYGIS	HIYSDGRRTFYGDSVK	GRAAGTFDS	ND ND ND	1 of 9 (2.85)
GFFLNSYGIS	VIYSDRRRTLYGDSVK	GRAAGTFDS	ND ND ND	0 of 9
GFTLNSDGIS	VIYSDFRRTFYNDSVK	GRAAGTFDS	5.69 3.62 ND	1 of 9 (4.48)
GFTLNSYGPS	VIYSDGRRTFYGHSVK	GRAAGTFDL	4.02 2.26 2.89	0 of 9
GFTLNSYGIS	VIYGDGRRTFYGDSVK	GIAPGTFDS	ND ND ND	2 of 9 (4.66)
GFTLNSYGIS	LIYCDGRRTFYGDFVK	GRAAGTFDS	ND ND ND	4 of 9 (3.43)
GDTLNSYGIS	VIYSYGRRTFYGDSVK	GIAAGTFDS	ND 2.37 5.84	2 of 9 (4.77)
GFTLNSYRIS	VIYSDGRRTCYGDSVK	GRAAGKFDS	ND ND ND	0 of 9
GFTLNSCGVS	VIYSDGRRTFYGDSVK	GRAEGTFDS	4.29 3.40 ND	2 of 9 (3.66)
GFTLNSWGIS	VIYSDGRRTFYGDSVA	GRAWGTFDS	ND ND ND	0 of 9
GFTLNSYGTS	VIYSDGRRPFYGDSVK	GRAAGTFDN	ND ND ND	0 of 9
GFTLHSYGIS	VIYSDTRRTFYGDEVK	GRAAGTFDS	ND ND ND	1 of 9 (2.11)
GFTLNSYGIS	VQYSDGQRTFYGDSVK	GRAAWTFDS	ND ND ND	1 of 9 (3.51)
GFELNSYGIS	VIYSDGRRTFYGDMVK	GRWAGTFDS	1.78 1.70 1.68	2 of 9 (3.41)

6 of these entries, quoted again:

| CDR-H1 | CDR-H2 | CDR-H3 | log10 Kd, replicates | empty controls |
|---|---|---|---|---|
| GFTLNSWGIS | VIYSDGRRTFYGDSVA | GRAWGTFDS | ND ND ND | 0 of 9 |
| GFFLNSYGIS | VIYSCMRRTFYGDSVK | GRAAGTFDS | ND ND ND | 4 of 9 (4.12) |
| GFTLNSYGTS | VIYSDGRRPFYGDSVK | GRAAGTFDN | ND ND ND | 0 of 9 |
| GFTLNSYGLN | VIYSDGRRTFYGDSVK | GRAAGTFDV | ND 3.58 ND | 2 of 9 (3.56) |
| GDTLNSYGIS | VIYSYGRRTFYGDSVK | GIAAGTFDS | ND 2.37 5.84 | 2 of 9 (4.77) |
| GFTLNSYGIS | VIYSDGRCTFYGDSVK | VRAAGSFDS | ND ND ND | 2 of 9 (3.13) |

For reference, the parent read 0.65 as the reference entry and 4.11 (one replicate of three) as a member of this library. As a blank, each scFv also met three strains without target: over library AAYL49, 15% of these pairings were detected, typically at 4.06 and seldom below 2.83. For each scFv, signals with the empty controls are counted beside the result, with their mean in brackets.